Measured values as given in ChEMBL document CHEMBL3352090, “Discovery of a Potent Analgesic NOP and Opioid Receptor Agonist: Cebranopadol” (2014).

Sequences of proteins named here, by UniProt entry; tags and fusion partners are left off. A change or cut given only in a name is not applied to a line headed by its entry. Residues count along the entry.
UniProt P41146: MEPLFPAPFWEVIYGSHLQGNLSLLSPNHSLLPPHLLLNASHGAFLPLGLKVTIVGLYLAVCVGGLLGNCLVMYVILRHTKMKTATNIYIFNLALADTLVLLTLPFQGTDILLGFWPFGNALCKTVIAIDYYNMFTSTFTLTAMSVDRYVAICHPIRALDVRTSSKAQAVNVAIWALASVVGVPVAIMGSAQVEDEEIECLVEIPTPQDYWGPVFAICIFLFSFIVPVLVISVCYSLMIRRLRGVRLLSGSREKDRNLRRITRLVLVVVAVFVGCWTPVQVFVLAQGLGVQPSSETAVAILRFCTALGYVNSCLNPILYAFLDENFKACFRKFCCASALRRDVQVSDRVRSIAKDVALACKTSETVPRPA
UniProt P35372, whole entry, looked up: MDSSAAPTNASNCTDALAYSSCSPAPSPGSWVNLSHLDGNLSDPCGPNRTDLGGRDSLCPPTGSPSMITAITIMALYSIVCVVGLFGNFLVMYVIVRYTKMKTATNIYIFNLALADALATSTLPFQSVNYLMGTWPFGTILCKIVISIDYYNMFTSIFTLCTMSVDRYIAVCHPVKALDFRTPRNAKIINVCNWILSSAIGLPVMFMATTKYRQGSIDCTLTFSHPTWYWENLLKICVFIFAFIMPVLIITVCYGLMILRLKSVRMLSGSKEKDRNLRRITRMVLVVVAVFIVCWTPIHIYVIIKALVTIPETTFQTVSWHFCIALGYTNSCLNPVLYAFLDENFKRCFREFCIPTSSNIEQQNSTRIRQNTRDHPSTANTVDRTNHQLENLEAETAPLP
UniProt P41145: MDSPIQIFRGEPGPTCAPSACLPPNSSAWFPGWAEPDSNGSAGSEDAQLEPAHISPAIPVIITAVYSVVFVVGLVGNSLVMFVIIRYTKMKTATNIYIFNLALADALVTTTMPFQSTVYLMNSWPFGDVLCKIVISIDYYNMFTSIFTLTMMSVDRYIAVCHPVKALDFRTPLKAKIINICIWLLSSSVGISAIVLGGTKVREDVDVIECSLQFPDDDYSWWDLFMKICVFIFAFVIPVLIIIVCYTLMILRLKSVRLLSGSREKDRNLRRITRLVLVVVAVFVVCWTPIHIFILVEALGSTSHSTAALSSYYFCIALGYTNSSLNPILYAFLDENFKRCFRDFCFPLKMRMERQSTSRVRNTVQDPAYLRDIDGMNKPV
UniProt P41143, whole entry, looked up: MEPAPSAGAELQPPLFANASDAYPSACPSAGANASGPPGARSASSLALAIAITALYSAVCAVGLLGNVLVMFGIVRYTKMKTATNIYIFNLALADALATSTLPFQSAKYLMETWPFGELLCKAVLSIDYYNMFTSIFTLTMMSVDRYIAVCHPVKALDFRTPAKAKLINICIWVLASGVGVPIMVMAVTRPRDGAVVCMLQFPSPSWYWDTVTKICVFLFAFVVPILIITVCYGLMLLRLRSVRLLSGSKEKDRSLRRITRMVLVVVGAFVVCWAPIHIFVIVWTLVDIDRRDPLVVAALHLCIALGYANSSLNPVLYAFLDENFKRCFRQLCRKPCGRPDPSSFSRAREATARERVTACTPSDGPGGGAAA
UniProt P05177, 2-516 limits assumed: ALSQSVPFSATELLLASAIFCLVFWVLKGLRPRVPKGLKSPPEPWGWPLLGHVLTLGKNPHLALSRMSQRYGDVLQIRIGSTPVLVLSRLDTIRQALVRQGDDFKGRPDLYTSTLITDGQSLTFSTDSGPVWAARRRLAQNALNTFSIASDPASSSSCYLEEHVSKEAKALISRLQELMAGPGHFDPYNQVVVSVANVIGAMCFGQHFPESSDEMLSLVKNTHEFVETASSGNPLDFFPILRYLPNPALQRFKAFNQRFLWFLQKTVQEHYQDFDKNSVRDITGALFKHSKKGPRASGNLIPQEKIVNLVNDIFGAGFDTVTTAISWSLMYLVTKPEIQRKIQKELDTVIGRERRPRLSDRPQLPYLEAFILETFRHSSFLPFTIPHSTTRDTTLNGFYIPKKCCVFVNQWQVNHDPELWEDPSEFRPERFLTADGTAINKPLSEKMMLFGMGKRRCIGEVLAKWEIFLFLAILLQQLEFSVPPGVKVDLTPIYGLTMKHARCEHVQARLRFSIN
UniProt P11509: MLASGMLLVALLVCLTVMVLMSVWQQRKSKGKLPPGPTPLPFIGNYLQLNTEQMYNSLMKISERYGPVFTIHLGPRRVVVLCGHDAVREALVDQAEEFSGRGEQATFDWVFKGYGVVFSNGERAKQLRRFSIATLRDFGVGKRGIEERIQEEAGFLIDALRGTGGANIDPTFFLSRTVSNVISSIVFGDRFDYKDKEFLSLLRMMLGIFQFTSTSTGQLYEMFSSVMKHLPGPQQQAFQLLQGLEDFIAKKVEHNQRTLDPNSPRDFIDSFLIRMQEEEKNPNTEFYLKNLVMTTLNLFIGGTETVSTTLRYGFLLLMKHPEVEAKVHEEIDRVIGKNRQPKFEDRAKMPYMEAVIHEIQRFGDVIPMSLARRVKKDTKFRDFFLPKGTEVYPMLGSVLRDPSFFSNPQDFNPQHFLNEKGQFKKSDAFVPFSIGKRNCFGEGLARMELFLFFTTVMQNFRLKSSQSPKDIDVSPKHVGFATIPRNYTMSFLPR
UniProt P33261, whole entry, looked up: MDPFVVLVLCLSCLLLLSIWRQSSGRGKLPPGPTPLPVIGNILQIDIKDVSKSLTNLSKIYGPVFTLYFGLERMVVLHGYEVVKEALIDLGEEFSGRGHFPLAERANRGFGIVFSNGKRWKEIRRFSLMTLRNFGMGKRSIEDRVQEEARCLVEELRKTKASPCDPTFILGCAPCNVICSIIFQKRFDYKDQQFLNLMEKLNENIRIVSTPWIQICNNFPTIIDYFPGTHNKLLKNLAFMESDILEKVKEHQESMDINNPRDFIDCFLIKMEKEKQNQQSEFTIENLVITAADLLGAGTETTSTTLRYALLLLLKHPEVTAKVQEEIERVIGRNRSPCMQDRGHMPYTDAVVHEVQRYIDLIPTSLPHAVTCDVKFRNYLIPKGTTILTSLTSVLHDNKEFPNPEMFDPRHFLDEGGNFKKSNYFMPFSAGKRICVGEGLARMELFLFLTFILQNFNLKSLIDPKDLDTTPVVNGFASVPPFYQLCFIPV
UniProt P10635, whole entry, looked up: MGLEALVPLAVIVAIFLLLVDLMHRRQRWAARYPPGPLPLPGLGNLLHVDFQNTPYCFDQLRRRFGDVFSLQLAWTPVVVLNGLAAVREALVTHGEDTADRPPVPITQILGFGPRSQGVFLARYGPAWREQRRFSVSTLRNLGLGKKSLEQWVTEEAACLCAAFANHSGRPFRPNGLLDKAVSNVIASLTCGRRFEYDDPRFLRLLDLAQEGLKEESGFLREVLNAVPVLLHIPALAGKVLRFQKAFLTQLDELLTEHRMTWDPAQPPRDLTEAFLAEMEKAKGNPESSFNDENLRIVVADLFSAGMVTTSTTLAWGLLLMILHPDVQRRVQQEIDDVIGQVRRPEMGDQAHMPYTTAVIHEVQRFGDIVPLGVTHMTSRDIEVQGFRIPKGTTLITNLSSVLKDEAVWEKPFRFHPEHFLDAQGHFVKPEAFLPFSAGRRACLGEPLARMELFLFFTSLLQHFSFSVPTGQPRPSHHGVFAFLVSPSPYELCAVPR
UniProt P08684, 2-503 limits assumed: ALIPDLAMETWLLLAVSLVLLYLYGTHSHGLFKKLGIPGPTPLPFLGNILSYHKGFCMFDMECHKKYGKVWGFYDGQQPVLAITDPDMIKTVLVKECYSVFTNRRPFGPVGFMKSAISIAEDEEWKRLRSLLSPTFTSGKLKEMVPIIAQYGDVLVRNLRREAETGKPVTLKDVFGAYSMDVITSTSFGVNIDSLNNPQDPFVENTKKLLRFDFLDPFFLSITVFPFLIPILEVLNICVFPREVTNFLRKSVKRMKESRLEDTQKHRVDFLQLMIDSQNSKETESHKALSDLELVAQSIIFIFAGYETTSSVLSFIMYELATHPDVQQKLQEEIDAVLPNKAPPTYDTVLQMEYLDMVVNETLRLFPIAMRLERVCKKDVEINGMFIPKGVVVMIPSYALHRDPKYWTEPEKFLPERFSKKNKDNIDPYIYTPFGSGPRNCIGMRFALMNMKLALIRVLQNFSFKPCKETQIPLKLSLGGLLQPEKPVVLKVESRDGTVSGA
UniProt P20815, whole entry, looked up: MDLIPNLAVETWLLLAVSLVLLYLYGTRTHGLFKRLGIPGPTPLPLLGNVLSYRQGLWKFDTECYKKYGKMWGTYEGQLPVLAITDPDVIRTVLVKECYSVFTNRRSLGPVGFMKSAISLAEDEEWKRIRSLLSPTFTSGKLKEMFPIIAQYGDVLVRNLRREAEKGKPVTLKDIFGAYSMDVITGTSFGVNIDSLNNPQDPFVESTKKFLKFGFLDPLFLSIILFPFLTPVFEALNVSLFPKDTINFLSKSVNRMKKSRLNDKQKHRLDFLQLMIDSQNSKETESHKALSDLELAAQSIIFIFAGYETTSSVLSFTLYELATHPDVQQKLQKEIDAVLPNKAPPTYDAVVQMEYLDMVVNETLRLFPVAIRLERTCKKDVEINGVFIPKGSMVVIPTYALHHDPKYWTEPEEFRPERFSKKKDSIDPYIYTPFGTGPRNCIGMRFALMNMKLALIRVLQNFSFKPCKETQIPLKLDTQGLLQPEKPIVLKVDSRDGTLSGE
UniProt Q02485, whole entry, looked up: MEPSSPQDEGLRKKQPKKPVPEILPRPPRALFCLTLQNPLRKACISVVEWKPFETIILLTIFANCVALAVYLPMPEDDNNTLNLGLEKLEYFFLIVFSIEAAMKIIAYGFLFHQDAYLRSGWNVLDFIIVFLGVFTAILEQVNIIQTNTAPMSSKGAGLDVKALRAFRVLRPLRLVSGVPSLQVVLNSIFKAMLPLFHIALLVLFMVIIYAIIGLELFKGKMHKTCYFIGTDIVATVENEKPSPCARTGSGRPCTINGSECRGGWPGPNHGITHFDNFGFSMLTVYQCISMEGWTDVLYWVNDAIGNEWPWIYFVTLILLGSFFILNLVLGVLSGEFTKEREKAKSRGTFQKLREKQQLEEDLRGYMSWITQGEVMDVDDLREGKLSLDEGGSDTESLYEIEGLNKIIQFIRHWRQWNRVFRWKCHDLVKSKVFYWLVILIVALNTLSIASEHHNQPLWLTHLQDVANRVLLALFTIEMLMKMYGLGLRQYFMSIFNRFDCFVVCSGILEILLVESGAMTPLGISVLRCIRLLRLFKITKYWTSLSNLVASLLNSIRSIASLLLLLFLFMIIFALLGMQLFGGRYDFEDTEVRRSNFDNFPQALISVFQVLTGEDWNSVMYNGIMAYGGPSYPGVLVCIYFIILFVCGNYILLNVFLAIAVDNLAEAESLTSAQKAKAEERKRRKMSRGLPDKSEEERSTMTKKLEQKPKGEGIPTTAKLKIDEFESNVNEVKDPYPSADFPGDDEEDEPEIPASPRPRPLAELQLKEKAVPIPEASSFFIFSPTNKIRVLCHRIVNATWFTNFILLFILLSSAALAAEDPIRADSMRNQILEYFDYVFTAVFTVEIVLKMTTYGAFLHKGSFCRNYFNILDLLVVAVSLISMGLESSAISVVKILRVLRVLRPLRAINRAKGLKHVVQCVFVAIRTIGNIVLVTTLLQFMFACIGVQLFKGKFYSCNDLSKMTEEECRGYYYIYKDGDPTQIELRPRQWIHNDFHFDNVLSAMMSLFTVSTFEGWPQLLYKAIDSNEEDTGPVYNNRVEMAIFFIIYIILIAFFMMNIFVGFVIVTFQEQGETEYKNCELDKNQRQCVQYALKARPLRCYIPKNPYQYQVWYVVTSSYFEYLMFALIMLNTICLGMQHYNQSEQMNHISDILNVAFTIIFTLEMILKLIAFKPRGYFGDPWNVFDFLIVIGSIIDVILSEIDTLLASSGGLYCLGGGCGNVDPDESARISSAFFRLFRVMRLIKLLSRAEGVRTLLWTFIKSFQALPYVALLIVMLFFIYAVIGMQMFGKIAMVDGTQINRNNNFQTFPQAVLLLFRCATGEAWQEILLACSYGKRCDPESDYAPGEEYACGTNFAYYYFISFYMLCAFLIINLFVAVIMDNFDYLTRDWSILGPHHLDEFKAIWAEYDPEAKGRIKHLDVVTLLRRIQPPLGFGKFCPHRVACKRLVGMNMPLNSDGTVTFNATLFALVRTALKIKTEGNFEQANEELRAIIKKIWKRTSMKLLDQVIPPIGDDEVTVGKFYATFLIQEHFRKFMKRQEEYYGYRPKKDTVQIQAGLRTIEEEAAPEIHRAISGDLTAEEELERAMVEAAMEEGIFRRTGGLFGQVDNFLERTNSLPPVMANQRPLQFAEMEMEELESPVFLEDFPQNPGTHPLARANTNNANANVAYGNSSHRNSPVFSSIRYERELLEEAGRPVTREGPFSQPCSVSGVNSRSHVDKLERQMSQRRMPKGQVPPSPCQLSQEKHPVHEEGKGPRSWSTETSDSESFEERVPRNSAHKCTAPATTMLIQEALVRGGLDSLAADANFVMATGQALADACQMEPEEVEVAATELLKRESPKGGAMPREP

Columns and labels:
[1] = test system: Mus musculus; test: Antinociceptive activity in iv dosed NMRI mouse assessed as increase in latency for tail withdrawal from radiant heat source by tail flick test; settings: strain NMRI
[2] = test system: Mus musculus; test: Antinociceptive activity in orally dosed NMRI mouse assessed as increase in latency for tail withdrawal from radiant heat source by tail flick test; settings: strain NMRI
[3] = target: T1, Nociceptin receptor (Homo sapiens, UniProt P41146); test: Displacement of [3H]nociceptin from human NOP receptor expressed in CHO-K1 cells by scintillation proximity assay
[4] = target: T2, Mu-type opioid receptor (Homo sapiens, UniProt P35372); test: Displacement of [3H]naloxone from human MOP receptor expressed in CHO-K1 cells by scintillation proximity assay
[5] = test system: Mus musculus; test: Oral bioavailability in mouse; settings: in vivo
[6] = target: Kappa-type opioid receptor (Homo sapiens, UniProt P41145); test: Binding affinity to human kappa opioid receptor
[7] = target: Delta-type opioid receptor (Homo sapiens, UniProt P41143); test: Binding affinity to human delta opioid receptor
[8] = target: T1, Nociceptin receptor; test: Agonist activity at human recombinant NOP receptor expressed in CHO-K1 cells assessed as stimulation of [35S]GTPgammaS binding by scintillation proximity assay
[9] = target: T2, Mu-type opioid receptor; test: Agonist activity at human recombinant MOP receptor expressed in CHO-K1 cells assessed as stimulation of [35S]GTPgammaS binding by scintillation proximity assay
[10] = target: T3, Voltage-gated inwardly rectifying potassium channel KCNH2 (Homo sapiens, UniProt Q12809); test: Inhibition of human ERG
[11] = test system: Mus musculus; test: Neurotoxicity in iv dosed CD1 mouse by rotarod test; settings: in vivo
[12] = test system: Mus musculus; test: Neurotoxicity in iv dosed CD1 mouse assessed as impairment of motor coordination by rotarod test; settings: in vivo
[13] = test system: Mus musculus; test: Safety index, ratio of NOAEL for iv dosed CD1 mouse by rotarod test to antinociceptive ED50 for iv dosed NMRI mouse by tail flick test
[14] = test system: Mus musculus; test: Gastrointestinal toxicity in iv dosed NMRI mouse assessed as inhibition of intestinal charcoal transit by charcoal transit test; settings: in vivo
[15] = test system: Mus musculus; test: Potency index, ratio of antinociceptive ED50 for iv dosed NMRI mouse by tail flick test to antinociceptive efficacy in CD1 mouse model of streptozotocin induced diabetic polyneuropathy
[16] = organism: Mus musculus; test: Half life in mouse; settings: in vivo
[17] = organism: Mus musculus; test: Volume of distribution in mouse; settings: in vivo
[18] = test system: Rattus norvegicus; test: Oral bioavailability in rat; settings: in vivo
[19] = test system: Mus musculus; test: Antinociceptive activity in iv dosed NMRI mouse assessed as time duration showing >20% maximum possible antinociceptive efficacy by tail flick test; settings: strain NMRI
[20] = test system: Mus musculus; test: Antinociceptive activity in orally dosed NMRI mouse assessed as time duration showing >20% maximum possible antinociceptive efficacy by tail flick test; settings: strain NMRI
[21] = test system: Mus musculus; test: Antinociceptive activity in CD1 mouse model of streptozotocin induced diabetic polyneuropathy assessed as reduction in thermal hyperalgesia at 2.1 nmol/kg, iv by hot plate test relative to untreated control
[22] = target: Cytochrome P450 1A2 (Homo sapiens, UniProt P05177); test: Inhibition of human CYP1A2 up to 250 nM
[23] = target: Cytochrome P450 2A6 (Homo sapiens, UniProt P11509); test: Inhibition of human CYP2A6 up to 250 nM
[24] = target: Cytochrome P450 2B6 (Homo sapiens, UniProt P20813); test: Inhibition of human CYP2B6 up to 250 nM
[25] = target: Cytochrome P450 2C8 (Homo sapiens, UniProt P10632); test: Inhibition of human CYP2C8 up to 250 nM
[26] = target: Cytochrome P450 2C9 (Homo sapiens, UniProt P11712); test: Inhibition of human CYP2C9 up to 250 nM
[27] = target: Cytochrome P450 2C19 (Homo sapiens, UniProt P33261); test: Inhibition of human CYP2C19 up to 250 nM
[28] = target: Cytochrome P450 2D6 (Homo sapiens, UniProt P10635); test: Inhibition of human CYP2D6 up to 250 nM
[29] = target: Cytochrome P450 2E1 (Homo sapiens, UniProt P05181); test: Inhibition of human CYP2E1 up to 250 nM
[30] = target: Cytochrome P450 3A4 (Homo sapiens, UniProt P08684); test: Inhibition of human CYP3A4 up to 250 nM
[31] = target: Cytochrome P450 3A5 (Homo sapiens, UniProt P20815); test: Inhibition of human CYP3A5 up to 250 nM
[32] = target: T4, Voltage-gated L-type calcium channel (Rattus norvegicus, UniProt P22002+Q02485+P27732); test: Inhibition of rat brain cortex L-type Ca2+-channel benzothiazepine site
[33] = target: T4, Voltage-gated L-type calcium channel; test: Inhibition of rat brain cortex L-type Ca2+-channel phenylalkylamine site
[34] = target: T4, Voltage-gated L-type calcium channel; test: Inhibition of rat whole brain L-type Ca2+-channel dihydropyridine site
[35] = target: T3, Voltage-gated inwardly rectifying potassium channel KCNH2; test: Inhibition of human ERG expressed in HEK293 cells assessed as reduction in potassium currents up to 10 uM by whole cell patch clamp method
[36] = test system: Mus musculus; test: Neurotoxicity in CD1 mouse assessed as effect on motor coordination up to 376 nmol/kg, iv by rotarod test; settings: in vivo
[37] = test system: Mus musculus; test: Neurotoxicity in CD1 mouse assessed as impairment of motor coordination at 454 nmol/kg, iv by rotarod test; settings: in vivo
[38] = test system: Mus musculus; test: Neurotoxicity in CD1 mouse assessed as reduction in time for animals to remain on rotating rod at 454 nmol/kg, iv by rotarod test; settings: in vivo
[39] = test system: Mus musculus; test: Neurotoxicity in CD1 mouse assessed as maximum performance time on rotating rod at 454 nmol/kg, iv after 15 mins post dose by rotarod test (reference value: 120 secs); settings: in vivo, 0.25 h
[40] = test system: Mus musculus; test: Neurotoxicity in CD1 mouse assessed as increase in failure to stay on rotating rod at 454 nmol/kg, iv by rotarod test; settings: in vivo

Compound: CN1CC[C@]23c4c5ccc(O)c4O[C@H]2C(=O)CC[C@H]3[C@H]1C5.Cl
- ED50 [1]: 0.622 µmol/kg
- MPE [1]: 100%
- ED50 [2]: 18.8 µmol/kg
- MPE [2]: > 95%

Compound: CN(C)[C@]1(c2ccccc2)CC[C@@]2(CC1)OCCc1c3cc(F)ccc3[nH]c12
- Ki [3]: 97.4 nM
- Ki [4]: 46 nM

Compound: COc1ccc2[nH]c3c(c2c1)CCO[C@]31CC[C@](c2ccccc2)(N(C)C)CC1
- Ki [3]: 9.4 nM
- Ki [4]: 1.1 nM

Compound: CN(C)[C@]1(c2ccccc2)CC[C@]2(CC1)OCCc1c3cc(O)ccc3[nH]c12.O=C(O)CC(O)(CC(=O)O)C(=O)O
- bioavailability [5]: 14%

Compound: CN(C)[C@]1(c2ccccc2)CC[C@]2(CC1)OCCc1c3cc(F)ccc3[nH]c12
- Ki [3]: 0.9 nM
- Ki [4]: 0.7 nM
- Ki [6]: 2.6 nM
- Ki [7]: 18 nM
- EC50 [8]: 13 nM
- EC50 [9]: 1.2 nM
- Ki [10]: > 100000 nM

Compound: Cc1ccc2[nH]c3c(c2c1)CCO[C@]31CC[C@](c2ccccc2)(N(C)C)CC1
- Ki [3]: 4.5 nM
- Ki [4]: 2.7 nM

Compound: CN(C)[C@]1(c2ccccc2)CC[C@]2(CC1)NCCc1c3ccccc3[nH]c12.Cl
- inhibition (INH) ([10]; human): Active

Compound: CN(C)[C@]1(c2ccccc2)CC[C@]2(CC1)OCCc1c3cc(F)ccc3[nH]c12.O=C(O)CC(O)(CC(=O)O)C(=O)O
- NOAEL [11]: 376 nmol/kg
- ED50 [12]: > 454 nmol/kg
- TI [13]: ≥ 10
- Activity [14]: Dose-dependent effect
- ED50 [14]: 87 nmol/kg
- NOAEL [14]: 21 nmol/kg
- Ratio [15]: 20
- t1/2 [16]: 2.57 h
- Vc [17]: 2.96 L/kg
- bioavailability [18]: 23%
- ED50 [1]: 0.0401 µmol/kg
- MPE [1]: > 95%
- ED50 [2]: 0.077 µmol/kg
- MPE [2]: 100%
- Time [19]: 180 min
- Time [20]: > 480 min
- MPE [21]: 54.1%
- inhibition (INH) [22]: Not Active
- inhibition (INH) [23]: Not Active
- inhibition (INH) [24]: Not Active
- inhibition (INH) [25]: Not Active
- inhibition (INH) [26]: Not Active
- inhibition (INH) [27]: Not Active
- inhibition (INH) [28]: Not Active
- inhibition (INH) [29]: Not Active
- inhibition (INH) [30]: Not Active
- inhibition (INH) [31]: Not Active
- Ki [32]: 800 nM
- Ki [33]: 480 nM
- Ki [34]: > 100000 nM
- inhibition (INH) [35]: Not Active
- Activity [36]: Non-toxic
- Activity [37]: Toxic
- Time [38]: 30 min
- Time [39]: 72 s
- Activity [40]: Toxic

Compound: CN(C)[C@]1(c2ccccc2)CC[C@]2(CC1)SCCc1c3ccccc3[nH]c12
- Ki [3]: 3.7 nM
- Ki [4]: 3.1 nM

Compound: CN(C)[C@]1(c2ccccc2)CC[C@@]2(CCCc3c4ccccc4[nH]c32)CC1
- Ki [3]: 1.26 nM
- Ki [4]: 1.95 nM

Compound: CN[C@]1(c2ccccc2)CC[C@]2(CC1)OCCc1c3cc(F)ccc3[nH]c12.O=C(O)CC(O)(CC(=O)O)C(=O)O
- t1/2 [16]: 3.5 h
- Vz [17]: 72.5 L/kg
